This is an account of results in ChEMBL document CHEMBL1133656, “Structural determinants of efficacy for kappa opioid receptors in the orvinol series: 7,7-spiro analogues of buprenorphine” (2000).

Amino acid sequences for entries named in this document (tags omitted).
UniProt P41143, whole entry, looked up: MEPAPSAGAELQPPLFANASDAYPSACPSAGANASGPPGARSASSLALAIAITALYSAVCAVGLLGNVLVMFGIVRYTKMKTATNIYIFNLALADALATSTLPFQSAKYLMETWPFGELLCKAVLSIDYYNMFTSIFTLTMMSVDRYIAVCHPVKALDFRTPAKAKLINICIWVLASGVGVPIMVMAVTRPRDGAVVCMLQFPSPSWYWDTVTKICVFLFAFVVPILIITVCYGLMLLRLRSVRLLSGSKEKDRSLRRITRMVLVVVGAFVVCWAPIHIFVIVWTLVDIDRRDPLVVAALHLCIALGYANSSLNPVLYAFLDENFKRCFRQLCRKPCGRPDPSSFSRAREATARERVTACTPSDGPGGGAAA

In this experiment the target is Delta-type opioid receptor (Homo sapiens) (UniProt P41143). The experiment in a line: % stimulation of GTPgammaS binding in cloned human Opioid receptor delta 1 transfected into hamster ovary cells with respect to DPDPE. A general note: Binding of GTPγS marks nucleotide exchange on a G protein.

`CO[C@@]12CC[C@@]3(C[C@@H]1[C@](C)(O)C(C)(C)C)[C@H]1Cc4ccc(O)c5c4[C@@]3(CCN1CC1CC1)[C@H]2O5` gave a Stimulation of less than 20%.
